Data set [1] can be described thus: TNBS-induced colitis, body weight and macroscopic damage. The settings on record: TNBS 100 mg/kg rectally in 40% ethanol, vs buffer-injected and normal mice.
A further data set concerns ghrelin mRNA. In words: TNBS-induced colitis, colonic ghrelin mRNA by quantitative real time PCR. The settings on record: colon, one day after TNBS infusion (100 mg/kg, rectal). (In qPCR the cycle at which signal appears reflects the starting amount.)

Structures are written as SMILES.

On to `O=[N+]([O-])c1cc([N+](=O)[O-])c(S(=O)(=O)O)c([N+](=O)[O-])c1`, for which the “body weight, diarrhea, macroscopic damage” value in data set [1] was “typical weight loss, diarrhea and severe ulceration”. Besides, the “levels of ghrelin mRNA increased as compared to the control” value with ghrelin mRNA came out at 2.4 fold.

The values are drawn from patent US20070025991A1, “Use of antagonists of ghrelin or ghrelin receptor to treat intestinal inflammation” (priority 2003, published 2007).
